{
  "source": "patent US20250017895A1",
  "about": "“FLAVANOID CONTAINING COMPOSITIONS AND METHODS OF USE THEREOF FOR THE TREATMENT OF MITOCHONDRIAL DISORDERS” (priority 2021, published 2025)",
  "format_in_all_cases": "in vivo",
  "key": {"[1]": {"test_system": "Pdss2kd/kd homozygous missense mutant mice", "experiment": "Polarography of permeabilized skeletal muscle of Pdss2kd/kd mice (Oxygraph 2K)", "conditions": "5 to 10 μg/ml in drinking water, two months, compared to wild-type (B6)", "method": "FIGS. 15A-15B: (+) Epicatechin treatment (5 to 10 μg/ml fed in drinking water) of Pdss2^kd/kd homozygous missense mutant mice, which have neuromuscular dysfunction, Parkinsonism, and renal glomerular disease due to impaired Coenzyme Q biosynthesis, normalized their reduced complex I-dependent and complex I+II integrated respiratory chain oxidative phosphorylation capacity as compared to wild-type (B6) controls. Pdss2^kd/kd mice were already grossly ill with renal disease as evidenced by frank albuminuria at the time (+) Epicatechin treatment was begun at 90-115 days of life, with daily refreshing of their treatment for two months prior to sacrifice and tissue analysis. Polarography was performed by Oxygraph 2K (Oroboros Instruments) in freshly isolated permeabilized skeletal muscle to evaluate mitochondrial complex I (malate+ADP) integrated oxphos capacity (FIG. 15A) and integrated mitochondrial complexes I+II (malate+succinate+ADP) oxphos capacity (FIG. 15B). N conveys number of animals studied per condition, split to display sex-related effects.\nFurther analysis of integrated mitochondrial respiratory chain capacity was performed by polarography in freshly isolated skeletal muscle using a permeabilized tissue protocol with malate as the complex I substrate, and malate+succinate as the complex I+II substrates, together with high ADP per standard protocol (Oxygraph 2k, Oroboros Instruments). N=2-6 animals/condition, as detailed. B6 control animals were sacrificed between 127 and 137 days of life. Pdss2^kd/kd mice were fed (+) Epicatechin ad libitum from approximately 90-120 days of life (when symptoms of renal glomerular disease were already present based on frank albuminuria) until sacrifice at approximately 150-190 days of life. […] A consistent trend was seen of increased mitochondrial complex I and complex I oxphos capacity as well as increased mitochondrial complex I+II oxphos capacity with 5 μg/mL to 10 μg/mL (+) epicatechin oral treatment in their drinking water for 2 months after the onset of renal disease."}, "[2]": {"test_system": "gas-1(fc21) ndufs2−/− complex I disease mutant worms", "experiment": "C. elegans gas-1(fc21) lifespan analysis", "conditions": "20° C., without FUDR", "from_the_text": "FIG. 2C, the Table below FIGS. 2A and 2B indicates specific values and P values calculated in Graphpad Prism v5.0 for graph shown in FIG. 2B (survival data is shown in days). FIGS. 2D-2F: Comparative analysis of 4-log concentration range of (+) epicatechin (Epi plus), (−) epicatechin (Epi minus), and 11-β-hydroxypregnenolone (11OHP) on lifespan of gas-1(fc21) ndufs2^−/− complex I disease mutant worms.\nNeuromuscular activity, and lifespan were quantified in the C. elegans gas-1(fc21) ndufs2^−/− mutants. A semi-automated screening method (Mathew et al, 2016) was used to test drug treatment effects on an integrated C. elegans health endpoint of fecundity, brood size, and behavior.\n(−) Epicatechin and (+) Epicatechins act through mimicry of the endogenous mitochondrial steroid 11-β-hydroxypregnenolone (11-OHP), a potent inducer of mitochondrial biogenesis. C. elegans nematode strains studied included wild-type (N2 Bristol) and gas-1(fc21) mutants. […] FIGS. 2D, 2E and 2F are graphs show a side-by-side comparison of (+)-epicatechin, (−)-epicatechin and 11-0HP on gas-1(fc-21) worm survival."}, "[3]": {"test_system": "Pdss2kd/kd homozygous missense mutant mice", "experiment": "Liver mitochondrial content (VDAC western blot, citrate synthase activity) in Pdss2kd/kd mice", "conditions": "5 or 10 μg/mL in drinking water; approximately 2 months"}},
  "data": [
    {"smiles": "Oc1cc(O)c2c(c1)O[C@@H](c1ccc(O)c(O)c1)[C@@H](O)C2", "note": "[(+) epicatechin]", "values": [
      {"measurement": "complex I+II (malate+succinate+ADP) integrated oxphos capacity in skeletal muscle", "setting": "[1]", "result": "increased"},
      {"measurement": "complex I-dependent (malate+ADP) integrated oxphos capacity in skeletal muscle", "setting": "[1]", "result": "increased"},
      {"measurement": "complex I+II (malate+succinate+ADP) integrated oxphos capacity in skeletal muscle", "setting": "[1]; listed as (+) Epicatechin", "result": "normalized"},
      {"measurement": "complex I-dependent (malate+ADP) integrated oxphos capacity in skeletal muscle", "setting": "[1]; listed as (+) Epicatechin", "result": "normalized"},
      {"measurement": "short lifespan of gas-1(fc21) worms relative to wild-type", "setting": "[2]; 1 nM", "result": "significant but somewhat lesser degree"},
      {"measurement": "short lifespan of gas-1(fc21) worms relative to wild-type", "setting": "[2]; 10 nM", "result": "significantly rescued"},
      {"measurement": "short lifespan of gas-1(fc21) worms relative to wild-type", "setting": "[2]; 100 nM", "result": "significant but somewhat lesser degree"},
      {"measurement": "VDAC (porin) protein expression in liver relative to untreated mutant controls", "setting": "[3]", "result": "Significant increase"}
    ]}
  ]
}
